Data as given in patent US20200361914A1, “SUBSTITUTED BENZENE AND 6,5-FUSED BICYCLIC HETEROARYL COMPOUNDS” (Epizyme, Inc., priority 2014, published 2020).

Chains of the proteins cited; added tags and fusions are not shown.
UniProt Q15910, whole entry: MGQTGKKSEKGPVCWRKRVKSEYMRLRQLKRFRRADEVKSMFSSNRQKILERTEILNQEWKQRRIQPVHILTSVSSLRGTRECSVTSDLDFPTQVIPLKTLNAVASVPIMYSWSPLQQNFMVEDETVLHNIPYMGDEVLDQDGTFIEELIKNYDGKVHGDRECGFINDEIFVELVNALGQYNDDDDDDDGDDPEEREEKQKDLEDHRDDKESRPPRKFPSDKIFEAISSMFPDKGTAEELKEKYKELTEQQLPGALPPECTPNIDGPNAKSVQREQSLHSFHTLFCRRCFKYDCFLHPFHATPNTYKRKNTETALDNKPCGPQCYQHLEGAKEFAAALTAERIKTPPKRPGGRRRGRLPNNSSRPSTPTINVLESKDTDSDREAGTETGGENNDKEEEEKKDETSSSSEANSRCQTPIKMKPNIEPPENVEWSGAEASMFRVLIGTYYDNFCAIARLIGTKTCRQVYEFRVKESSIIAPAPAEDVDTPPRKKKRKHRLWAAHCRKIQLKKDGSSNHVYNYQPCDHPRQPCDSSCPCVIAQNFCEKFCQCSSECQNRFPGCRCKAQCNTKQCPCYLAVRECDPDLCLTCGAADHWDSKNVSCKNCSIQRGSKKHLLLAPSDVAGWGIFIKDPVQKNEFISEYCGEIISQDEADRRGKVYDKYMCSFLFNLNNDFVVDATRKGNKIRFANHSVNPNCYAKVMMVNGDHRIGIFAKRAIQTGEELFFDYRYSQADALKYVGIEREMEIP
UniProt O75530, whole entry partner: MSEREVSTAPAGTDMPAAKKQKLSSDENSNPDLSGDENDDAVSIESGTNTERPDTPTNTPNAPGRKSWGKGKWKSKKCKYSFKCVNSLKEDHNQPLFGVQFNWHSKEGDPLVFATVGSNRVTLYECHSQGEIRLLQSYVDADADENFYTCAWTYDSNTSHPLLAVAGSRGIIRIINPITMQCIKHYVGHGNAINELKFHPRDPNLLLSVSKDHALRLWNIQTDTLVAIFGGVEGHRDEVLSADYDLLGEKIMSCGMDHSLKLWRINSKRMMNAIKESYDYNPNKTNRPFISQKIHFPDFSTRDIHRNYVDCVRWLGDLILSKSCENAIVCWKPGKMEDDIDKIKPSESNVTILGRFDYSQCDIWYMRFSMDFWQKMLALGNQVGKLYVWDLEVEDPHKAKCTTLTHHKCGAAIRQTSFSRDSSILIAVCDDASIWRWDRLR
UniProt Q15022, whole entry partner: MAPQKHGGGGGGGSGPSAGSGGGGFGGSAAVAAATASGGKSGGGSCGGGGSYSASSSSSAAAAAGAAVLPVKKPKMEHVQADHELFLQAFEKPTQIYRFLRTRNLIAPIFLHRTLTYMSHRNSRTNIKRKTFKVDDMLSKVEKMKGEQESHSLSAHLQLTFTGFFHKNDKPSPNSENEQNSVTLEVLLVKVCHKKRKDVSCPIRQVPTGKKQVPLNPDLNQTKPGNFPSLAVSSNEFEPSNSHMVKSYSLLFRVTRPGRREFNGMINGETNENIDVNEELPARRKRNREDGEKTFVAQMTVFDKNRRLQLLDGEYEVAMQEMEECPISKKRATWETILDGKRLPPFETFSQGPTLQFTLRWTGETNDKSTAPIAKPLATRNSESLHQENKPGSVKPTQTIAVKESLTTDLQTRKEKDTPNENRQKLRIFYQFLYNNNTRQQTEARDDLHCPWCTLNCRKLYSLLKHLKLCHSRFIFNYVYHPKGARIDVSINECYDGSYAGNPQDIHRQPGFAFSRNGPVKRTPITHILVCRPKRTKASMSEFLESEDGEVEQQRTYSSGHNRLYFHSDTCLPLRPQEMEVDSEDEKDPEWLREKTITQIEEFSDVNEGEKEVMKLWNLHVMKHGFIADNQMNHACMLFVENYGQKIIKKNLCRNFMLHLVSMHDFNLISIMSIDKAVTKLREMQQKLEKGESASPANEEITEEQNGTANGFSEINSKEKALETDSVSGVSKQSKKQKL
UniProt Q09028, whole entry partner: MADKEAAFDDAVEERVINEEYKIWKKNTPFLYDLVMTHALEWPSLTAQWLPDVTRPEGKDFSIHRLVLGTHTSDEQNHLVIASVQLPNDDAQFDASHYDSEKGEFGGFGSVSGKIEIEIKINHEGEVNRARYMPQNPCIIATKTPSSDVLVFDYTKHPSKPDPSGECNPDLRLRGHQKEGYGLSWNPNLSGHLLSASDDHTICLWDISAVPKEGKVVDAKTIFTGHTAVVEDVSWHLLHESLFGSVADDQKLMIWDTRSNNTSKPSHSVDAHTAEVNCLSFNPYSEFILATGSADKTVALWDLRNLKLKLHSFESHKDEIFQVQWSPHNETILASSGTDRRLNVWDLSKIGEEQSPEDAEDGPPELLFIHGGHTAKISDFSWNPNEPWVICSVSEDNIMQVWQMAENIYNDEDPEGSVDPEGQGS

biological target: wild-type PRC2 enzyme (EZH2 WT) (Homo sapiens, UniProt Q15910); experiment: PRC2 enzyme assay on peptide substrate, wild-type EZH2; settings: read-out: EZH2 WT IC50, H3K27me0 peptide substrate

Row | Structure (SMILES) | pIC50
1 | CCC(C)n1cc(C)c2c(C(=O)NCc3c(OC)[nH]c(C)cc3=O)cc(-c3ccc(N4CCNCC4)nc3)cc21 (stereo not drawn) | 6.00 to 7.00
2 | Cc1cc(=O)c(CNC(=O)c2c(C)n(C(C)C3CCOCC3)c3ccccc23)c(Cl)[nH]1 (stereo not drawn) | 4.30 to 5.00
3 | COc1[nH]c(C)cc(=O)c1CNC(=O)c1c(C)n(C(C)C2CCOCC2)c2ccccc12 (stereo not drawn) | 5.00 to 6.00

pIC50: −log10 of the molar value.
